The entries are a selection whose mix differs from that of the whole data set. The source made the active and inactive calls.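 How the source made its calls: active means activation above the mean of all tested compounds plus 3 SD, set per screening run (cut at about 8.8% in these data); inactive means the rest.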
Molecular target: Wee1-like protein kinase (Homo sapiens) (UniProt P30291)
Test: Wee1 degradation inhibitors, primary screen, cell-based, HeLa, Wee1K328M-luciferase, luminescence (AID 1321);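 further: cells exposed to compound for 20 h before luminescence read; 0% = DMSO alone and 100% = MG132 at 30 µM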
Conditions: HeLa Luc-Wee1K328M stability, at 5 µM, hits give high values, 100% = proteasome inhibitor MG132 effect

Protein sequences, listed by entry. Tags and fused reporters are not part of them. Lines headed by an entry give the natural chain unless they say otherwise; changes in a name come on top.
UniProt P30291: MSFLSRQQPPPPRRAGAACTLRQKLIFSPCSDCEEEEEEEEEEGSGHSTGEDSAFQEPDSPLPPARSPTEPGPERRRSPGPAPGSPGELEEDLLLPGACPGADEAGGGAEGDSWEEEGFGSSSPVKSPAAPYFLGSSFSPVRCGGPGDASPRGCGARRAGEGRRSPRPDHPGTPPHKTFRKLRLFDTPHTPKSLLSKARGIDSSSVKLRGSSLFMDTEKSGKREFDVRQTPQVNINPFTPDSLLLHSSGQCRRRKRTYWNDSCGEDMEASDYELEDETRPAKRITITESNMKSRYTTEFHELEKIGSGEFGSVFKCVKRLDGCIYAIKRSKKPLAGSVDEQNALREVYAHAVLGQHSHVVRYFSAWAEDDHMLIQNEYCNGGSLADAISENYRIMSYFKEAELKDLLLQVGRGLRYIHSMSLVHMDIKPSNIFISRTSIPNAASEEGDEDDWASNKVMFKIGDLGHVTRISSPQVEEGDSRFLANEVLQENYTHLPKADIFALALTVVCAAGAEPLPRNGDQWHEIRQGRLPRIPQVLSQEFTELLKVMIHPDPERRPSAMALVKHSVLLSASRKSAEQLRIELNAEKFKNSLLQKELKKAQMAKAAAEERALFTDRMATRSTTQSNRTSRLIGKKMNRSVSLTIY

SMILES | reporter increase
CCOC(=O)Nc1cccc([As](=O)(O)O)c1 | inactive: -0.7%
O=[N+]([O-])c1ccc(Nc2ccc(Oc3ccc([N+](=O)[O-])cc3[N+](=O)[O-])cc2)c([N+](=O)[O-])c1 | inactive: -0.66%
Cc1cc(SC(NC=O)C(Cl)(Cl)Cl)ncn1 (stereo unspecified) | inactive: -0.44%
O=P(Nc1ccccn1)(c1cccc2ccccc12)c1cccc2ccccc12 | active: 19.9%
CCOC(=O)Nc1ccc([As](=O)(O)O)c(O)c1 | inactive: 1.02%
Cc1cc(SC(NC(=O)c2ccccc2)C(Cl)(Cl)Cl)nc(C(C)C)n1 (stereo unspecified) | inactive: -3.27%
CC(C)c1ccc(OP(=O)(Nc2ccccn2)Oc2ccccc2F)cc1 (stereo unspecified) | inactive: -2.47%
ClCCSc1nnc(-c2cccnc2)o1 | inactive: 1.2%
O=[N+]([O-])c1cc([N+](=O)[O-])c(-c2ccn[nH]2)s1 | inactive: 1.54%
CC(C)NC(=O)NP(=O)(Oc1ccccc1)Oc1ccccc1 | inactive: 3.32%
CCN(CC)C(=S)SC(NC=O)C(Cl)(Cl)Cl (stereo unspecified) | inactive: -1.25%
C[As](=O)(O)c1cccc(C(=O)O)c1 | inactive: 1.27%
O=[As](O)(c1ccc(O)cc1)c1ccccc1O | inactive: -1.83%
Cc1ccc2nc3c(c(C)c2c1)CC(C(Cl)Cl)S3 (stereo unspecified) | inactive: 0.24%
Cc1ccc(OP(=O)(Nc2ccc([N+](=O)[O-])cn2)Oc2ccc(C)cc2)cc1 | inactive: -2.27%
COc1ccc(N/C(=N/P(=O)(N2CCOCC2)N2CCOCC2)N2CCOCC2)cc1 | inactive: 4.03%
Cc1cc(=O)[nH]c(N[N+](=O)[O-])n1 | inactive: -2.57%
O=C(OC1CN2CCC1CC2)C12CC3CC(CC(C3)C1)C2 (stereo unspecified) | inactive: 0.66%
Cc1c2c(nc3ccccc13)SC(C(Cl)Cl)C2 (stereo unspecified) | inactive: 1.19%
COc1cc(I)ccc1[As](=O)(O)O | inactive: 8.49%
COc1ccc2nc(NP(=O)(c3ccccc3)c3ccccc3)sc2c1 | inactive: -0.27%

From PubChem BioAssay AID1321 (The Scripps Research Institute Molecular Screening Center, 2008)
